Measurements as given in patent US10227345B2, “Compounds and methods for inhibiting fascin” (Cornell University, priority 2014, dated 2019).

Biological target: T1, human fascin 1 (Homo sapiens, UniProt Q16658)
T1 construct: GST (N, cleaved yes); made in house; host or cells: Escherichia coli BL21/DE3 (pGEX4T-fascin 1 plasmid)
Experiment: Fascin inhibition (actin bundling) assay, image-based
Format: biochemical
Conditions: in the presence of 50 μm of the compound relative to bundle activity when the compound was not present; read-out: Inhibition (percentage reduction of bundle activity)
Method: Recombinant human fascin 1 was expressed as a GST fusion protein in BL21 Escherichia coli. One liter of 2YT medium with ampicillin was inoculated overnight with 3 mL of BL21/DE3 culture transformed with pGEX4T-fascin 1 plasmid and grown at 37° C. until attenuance at 600 nm (D600) reached about 0.8. The culture was then transferred to 18° C. and induced by the addition of 0.1 mM isopropyl β-d-thiogalactoside (IPTG) for 12 h. Bacteria were harvested by centrifugation at 5,000 r.p.m. for 10 min. The pellets were suspended in 30 mL of PBS supplemented with 0.2 mM PMSF, 1 mM DTT, 1% (v/v) Triton X-100 and 1 mM EDTA. After sonication, the suspension was centrifuged at 15,000 r.p.m. for 30 min to remove the cell debris. The supernatant was then incubated for 2 h with 4 mL of glutathione beads (Sigma) at 4° C. After extensive washing with PBS, the beads were resuspended in 10 mL of thrombin cleavage buffer (20 mM Tris-HCl pH 8.0, 150 mM NaCl, 2 mM CaCl2, 1 mM DTT). Fascin was released from the beads by incubation overnight with 40-100 U of thrombin at 4° C. After centrifugation, 0.2 mM PMSF was added to the supernatant to inactivate the remnant thrombin activity. The fascin protein was further concentrated with a Centricon® (Boca Raton, Fla.) filter to about 50 mg/mL.
Representative compounds described herein were tested for fascin inhibition activity. Purified fascin protein (15 μL of 0.5 μM) in buffer (100 mM KCl, 20 mM Tris/HCl, pH 7.5, 2 mM MgCl2) was added into each well of a clear 384-well flat-bottom plate (Corning) using Thermo Multidrop Combi (Fisher). Compound solutions (5 mM stock, 180 nL) were pin transferred from stock 384-well plates into the 384-well assay plates and incubated for 30 min. Then 15 μL of 0.5 μM polymerized actin (in 100 mM KCl, 20 mM Tris/HCl, pH 7.5, 2 mM MgCl2, 1 mM DTT, 1 mM ATP) (Cytoskeleton Inc.) was added, resulting in 30 μM final concentration for chemical compounds. […] Mixed solution (25 μL) was then transferred to one well in a black 384-well plate coated with poly-D-lysine, and stained actin bundles or F-actin would stick onto the poly-D-lysine plates. After the plates were thoroughly washed with 1×PBS for 3 times, the plate was imaged using an ImageXpress Micro High Content Screening System (Molecular devices). The images were processed and analyzed using MetaMorph software. The raw image data for each well was background-corrected by subtraction of the median intensities across all wells on the plate. The background-corrected data was used to compute the bundle length for each well. The negative control wells were employed for quality control: multiple DMSO-only control wells (16 wells/plate) were present on each assay plate.

inhibition at 50 µM [%] | SMILES
90 | Cc1ncsc1C(=O)Nc1nn(Cc2ccc(C(F)(F)F)cc2)c2ccccc12 [Compound 10, 4-methyl-N-(1-(4-(trifluoromethyl)benzyl)-1H-indazol-3-yl)thiazole-5-carboxamide]
95 | Cc1n[nH]cc1C(=O)Nc1nn(Cc2ccc(C(F)(F)F)cc2)c2ccccc12 [Compound 44, 3-methyl-N-(1-(4-(trifluoromethyl)benzyl)-1H-indazol-3-yl)-1H-pyrazole-4-carboxamide]

Further lines, the molecule ahead of its results:

SMILES | inhibition at 50 µM [%]
O=C(Nc1nn(Cc2ccc(C(F)(F)F)cc2)c2ccccc12)c1cnon1 [Compound 33, N-(1-(4-(trifluoromethyl)benzyl)-1H-indazol-3-yl)-1,2,5-oxadiazole-3-carboxamide] | 80
O=C(Nc1nn(Cc2ccc(C(F)(F)F)cc2)c2ccccc12)c1cncs1 [Compound 36, N-(1-(4-(trifluoromethyl)benzyl)-1H-indazol-3-yl)thiazole-5-carboxamide] | 100
O=C(Nc1nn(Cc2ccc(C(F)(F)F)cc2)c2ccccc12)c1ccccc1 [Compound 4, N-(1-(4-(trifluoromethyl)benzyl)-1H-indazol-3-yl)benzamide] | 50
O=C(Nc1nn(Cc2ccc(C(F)(F)F)cc2)c2cncc(Cl)c12)c1cccnn1 [Compound 139, N-(4-chloro-1-(4-(trifluoromethyl)benzyl)-1H-pyrazolo[3,4-c]pyridin-3-yl)pyridazine-3-carboxamide] | 90
Cc1occc1C(=O)Nc1nn(Cc2ccc(C(F)(F)F)cc2)c2ccccc12 [Compound 43, 2-methyl-N-(1-(4-(trifluoromethyl)benzyl)-1H-indazol-3-yl)furan-3-carboxamide] | 90
